Literature values as cited in patent publication US20230158116A1, “USE OF HUMAN AMYLIN ANALOG POLYPEPTIDES FOR PROVIDING SUPERIOR GLYCEMIC CONTROL TO TYPE 1 DIABETICS” (I2O Therapeutics, Inc., priority 2020, published 2023).

Conditions: in humans; cited from earlier work

CC[C@H](C)[C@H](NC(=O)[C@@H]1CCCN1C(=O)CNC(=O)[C@H](Cc1ccccc1)NC(=O)[C@H](CC(N)=O)NC(=O)[C@H](CC(N)=O)NC(=O)[C@H](CO)NC(=O)[C@H](CO)NC(=O)[C@H](Cc1c[nH]cn1)NC(=O)[C@@H](NC(=O)[C@H](CC(C)C)NC(=O)[C@H](Cc1ccccc1)NC(=O)[C@H](CC(N)=O)NC(=O)[C@H](C)NC(=O)[C@H](CC(C)C)NC(=O)[C@H](CCCNC(=N)N)NC(=O)[C@H](CCC(N)=O)NC(=O)[C@@H](NC(=O)[C@H](C)NC(=O)[C@@H]1CSSC[C@H](NC(=O)[C@@H](N)CCCCN)C(=O)N[C@@H](CC(N)=O)C(=O)N[C@@H]([C@@H](C)O)C(=O)N[C@@H](C)C(=O)N[C@@H]([C@@H](C)O)C(=O)N1)[C@@H](C)O)C(C)C)C(=O)N[C@@H](CC(C)C)C(=O)N1CCC[C@H]1C(=O)N1CCC[C@H]1C(=O)N[C@H](C(=O)N[C@@H](CC(N)=O)C(=O)N[C@H](C(=O)NCC(=O)N[C@@H](CO)C(=O)N[C@@H](CC(N)=O)C(=O)N[C@H](C(=O)N[C@@H](Cc1ccc(O)cc1)C(N)=O)[C@@H](C)O)C(C)C)[C@@H](C)O [pramlintide]
half-life: approximately 48 minutes
